This passage reports IC50 results from ChEMBL document CHEMBL6096640, “Discovery of novel thiosemicarbazone-acridine targeting butyrylcholinesterase with antioxidant, metal complexing and neuroprotector abilities as potential treatment of Alzheimer's disease: In vitro, in vivo, and in silico studies” (Eur J Med Chem, 2025).

By UniProt entry, the sequences of proteins in these tests, tags left out. Where a name states a change or a piece, a line headed by the entry shows the natural chain unless it says otherwise.
UniProt O42275: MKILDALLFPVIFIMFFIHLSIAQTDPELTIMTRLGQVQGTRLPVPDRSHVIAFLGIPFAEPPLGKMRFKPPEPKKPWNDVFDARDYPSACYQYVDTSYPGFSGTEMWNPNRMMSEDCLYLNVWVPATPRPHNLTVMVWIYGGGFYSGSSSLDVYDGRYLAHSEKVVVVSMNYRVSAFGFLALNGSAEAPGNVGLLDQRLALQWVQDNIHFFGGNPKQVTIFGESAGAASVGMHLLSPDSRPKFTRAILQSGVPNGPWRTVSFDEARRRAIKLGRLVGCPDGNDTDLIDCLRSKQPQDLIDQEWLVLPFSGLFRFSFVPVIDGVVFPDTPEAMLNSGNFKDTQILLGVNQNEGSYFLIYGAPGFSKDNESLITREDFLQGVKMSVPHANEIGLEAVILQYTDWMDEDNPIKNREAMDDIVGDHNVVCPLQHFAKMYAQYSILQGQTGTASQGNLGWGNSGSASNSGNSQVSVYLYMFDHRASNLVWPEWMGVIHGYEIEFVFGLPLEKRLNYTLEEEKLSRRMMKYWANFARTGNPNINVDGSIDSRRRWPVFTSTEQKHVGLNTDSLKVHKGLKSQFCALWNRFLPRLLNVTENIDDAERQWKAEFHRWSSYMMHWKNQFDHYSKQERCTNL

This test addresses Acetylcholinesterase (Electrophorus electricus, UniProt O42275).

For orientation: IC50 means the concentration needed to halve the response being measured. Higher therefore signals a need for much substance. Turning to `CNC(=O)Oc1ccc2c(c1)[C@]1(C)CCN(C)[C@@H]1N2C` [PHYSOSTIGMINE], half-maximal inhibition (IC50) required 1560 nM.
